From US10456443B2, “Peptidyl calcineurin inhibitors” (OHIO STATE INNOVATION FOUNDATION, priority 2014, dated 2019)

How the values were obtained:
[1] = 25% human serum, 37 °C
docking site on CN = docking site on CN (Homo sapiens, UniProt Q08209); settings: versus PxIxIT motif; cited from earlier work
[2] = system: NFATc3 translocation in macrophages; assay: LPS induced NFATc3 nuclear translocation in macrophages; format: cell-based; settings: CP9-ZIZIT at 1 μM
[3] = diabetic db/db mice; cited from earlier work
[4] = system: HeLa cells stably transfected with GFP-NFAT; assay: GFP-NFAT translocation assay, live-cell confocal microscopy; settings: 500 nM peptide, 2 h preincubation, 10 min ionomycin stimulation
[5] = mice; cited from earlier work
[6] = B6 and C3H/HeN mouse strains; cited from earlier work
[7] = treated mice compared to controls; cited from earlier work

Compound | time to complete degradation in serum [1] [h] | half-life of degradation in serum ([1]; 50 μM peptide) [h] | fold higher affinity for CN docking site than the naturally occurring PxIxIT motif (docking site on CN) [fold] | LPS induced NFATc3 nuclear translocation [2] | effect on albuminuria, mesangial matrix expansion and podocyte injury [3] | inhibition of the nuclear translocation of GFP-NFAT [4] [%] | effect on experimental colitis [5] | effect on immunosuppression during islet allografts [6] | effect on microgliosis and Aβ plaque load [7]
CC[C@H](C)[C@H](NC(=O)[C@@H](NC(=O)[C@@H]1CCCN1C(=O)[C@H](Cc1c[nH]cn1)NC(=O)[C@@H]1CCCN1C(=O)CN)C(C)C)C(=O)N[C@H](C(=O)N[C@H](C(=O)N[C@H](C(=O)NCC(=O)N1CCC[C@H]1C(=O)N[C@@H](Cc1c[nH]cn1)C(=O)N[C@@H](CCC(=O)O)C(=O)N[C@@H](CCC(=O)O)C(N)=O)[C@@H](C)O)[C@@H](C)CC)C(C)C [VIVIT] | 6 | ~1 | 25 | – | – | – | – | – | –
Ac-RRRRRRRRRRRC-SPDP-GPHPVIVITGPHEE-NH2 [Peptide R11-VIVIT] | – | – | – | inhibited | markedly attenuates albuminuria | ~65 | protect against experimental colitis | improve immunosuppression | attenuate both microgliosis and Amyloid β peptide (Aβ) plaque load
